Experimental data: PMC11348464

Amino acid sequences for entries named in this document (tags omitted). A change or cut given only in a name is not applied to a line headed by its entry. Residues count along the entry.
UniProt Q09472, 2-2414 limits assumed: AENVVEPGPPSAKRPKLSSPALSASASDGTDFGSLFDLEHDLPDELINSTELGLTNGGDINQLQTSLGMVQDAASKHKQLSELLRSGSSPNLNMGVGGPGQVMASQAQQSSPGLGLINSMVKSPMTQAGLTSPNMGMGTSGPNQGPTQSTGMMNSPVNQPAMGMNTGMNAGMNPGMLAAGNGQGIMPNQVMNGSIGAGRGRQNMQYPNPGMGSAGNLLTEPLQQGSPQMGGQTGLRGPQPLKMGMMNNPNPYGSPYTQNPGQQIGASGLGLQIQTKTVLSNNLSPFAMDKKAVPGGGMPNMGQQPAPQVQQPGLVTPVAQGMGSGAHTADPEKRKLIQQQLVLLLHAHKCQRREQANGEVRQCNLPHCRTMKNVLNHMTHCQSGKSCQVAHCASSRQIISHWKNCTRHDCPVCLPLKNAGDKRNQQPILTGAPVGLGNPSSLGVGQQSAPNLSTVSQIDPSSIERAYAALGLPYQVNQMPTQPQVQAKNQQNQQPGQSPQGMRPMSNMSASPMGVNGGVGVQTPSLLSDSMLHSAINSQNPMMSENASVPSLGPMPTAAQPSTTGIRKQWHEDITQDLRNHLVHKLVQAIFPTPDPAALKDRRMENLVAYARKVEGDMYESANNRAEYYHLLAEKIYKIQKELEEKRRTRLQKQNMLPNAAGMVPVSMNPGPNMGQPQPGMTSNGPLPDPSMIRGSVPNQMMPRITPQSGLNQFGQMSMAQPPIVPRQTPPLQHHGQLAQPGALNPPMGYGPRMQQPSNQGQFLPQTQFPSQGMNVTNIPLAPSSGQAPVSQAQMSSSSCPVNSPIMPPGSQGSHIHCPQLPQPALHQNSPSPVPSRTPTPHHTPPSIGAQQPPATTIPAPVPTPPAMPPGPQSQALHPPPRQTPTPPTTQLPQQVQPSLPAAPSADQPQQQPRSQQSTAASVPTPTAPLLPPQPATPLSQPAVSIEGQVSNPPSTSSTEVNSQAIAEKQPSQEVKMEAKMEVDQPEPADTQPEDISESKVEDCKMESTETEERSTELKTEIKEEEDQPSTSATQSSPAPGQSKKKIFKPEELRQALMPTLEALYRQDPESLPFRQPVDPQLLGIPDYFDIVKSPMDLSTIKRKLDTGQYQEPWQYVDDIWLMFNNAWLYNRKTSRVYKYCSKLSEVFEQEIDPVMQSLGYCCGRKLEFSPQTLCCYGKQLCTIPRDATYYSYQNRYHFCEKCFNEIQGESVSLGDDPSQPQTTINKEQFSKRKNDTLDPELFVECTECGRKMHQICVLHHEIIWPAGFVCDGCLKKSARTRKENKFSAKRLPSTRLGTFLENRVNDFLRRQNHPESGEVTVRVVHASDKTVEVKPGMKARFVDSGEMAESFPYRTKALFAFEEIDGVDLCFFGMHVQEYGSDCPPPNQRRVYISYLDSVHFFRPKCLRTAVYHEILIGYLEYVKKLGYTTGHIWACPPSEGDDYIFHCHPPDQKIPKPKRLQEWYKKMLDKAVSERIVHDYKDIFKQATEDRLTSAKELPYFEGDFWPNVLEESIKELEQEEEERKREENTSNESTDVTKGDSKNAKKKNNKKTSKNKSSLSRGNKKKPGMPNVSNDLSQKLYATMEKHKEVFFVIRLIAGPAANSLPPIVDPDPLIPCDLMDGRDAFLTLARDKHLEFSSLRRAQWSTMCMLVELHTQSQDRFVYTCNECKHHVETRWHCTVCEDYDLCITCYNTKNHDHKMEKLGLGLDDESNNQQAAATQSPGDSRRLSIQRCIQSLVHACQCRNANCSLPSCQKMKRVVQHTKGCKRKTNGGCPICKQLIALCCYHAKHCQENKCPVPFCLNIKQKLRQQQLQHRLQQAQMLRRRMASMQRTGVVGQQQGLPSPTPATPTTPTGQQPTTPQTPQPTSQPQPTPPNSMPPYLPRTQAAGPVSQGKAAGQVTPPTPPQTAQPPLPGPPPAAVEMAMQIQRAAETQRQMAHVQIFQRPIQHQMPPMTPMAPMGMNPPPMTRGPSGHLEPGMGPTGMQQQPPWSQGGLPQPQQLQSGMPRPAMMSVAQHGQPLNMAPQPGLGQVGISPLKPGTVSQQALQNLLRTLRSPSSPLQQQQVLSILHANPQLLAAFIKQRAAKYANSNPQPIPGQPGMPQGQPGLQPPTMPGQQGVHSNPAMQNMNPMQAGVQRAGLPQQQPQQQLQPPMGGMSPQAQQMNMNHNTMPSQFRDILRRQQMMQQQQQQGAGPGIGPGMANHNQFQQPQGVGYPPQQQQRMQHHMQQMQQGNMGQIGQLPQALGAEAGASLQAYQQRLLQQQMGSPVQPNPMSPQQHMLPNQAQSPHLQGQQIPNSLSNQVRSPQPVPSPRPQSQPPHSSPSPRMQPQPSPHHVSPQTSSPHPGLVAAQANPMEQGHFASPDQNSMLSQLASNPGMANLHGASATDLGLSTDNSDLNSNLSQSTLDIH

Biological target: EP300 (E1A binding protein p300) (Homo sapiens, UniProt Q09472)
Test: TR-FRET assay kit with tetra-acetylated biotinylated H4 peptide and EP300, dose-response

| IC50 [µM] | SMILES |
| --- | --- |
| 5.89 | O=C1NC(=O)C(=Cc2ccccc2OCc2cccc(F)c2)N1 |
| 53.6 | CCOC(=O)c1c(C)[nH]c(C(=O)CSc2cc(C)c3ccc(OC)cc3n2)c1C |
